Assay results: patent US9567341B2, “Pyrrolopyrimidine derivatives as NR2B NMDA receptor antagonists” (Rugen Holdings (Cayman) Limited, priority 2014, dated 2017)
Some compounds may have been tested in ways that are not shown here.

Chains of the proteins cited; added tags and fusions are not shown. Residues count along the entry.
UniProt Q12879, 23-1464 limits assumed: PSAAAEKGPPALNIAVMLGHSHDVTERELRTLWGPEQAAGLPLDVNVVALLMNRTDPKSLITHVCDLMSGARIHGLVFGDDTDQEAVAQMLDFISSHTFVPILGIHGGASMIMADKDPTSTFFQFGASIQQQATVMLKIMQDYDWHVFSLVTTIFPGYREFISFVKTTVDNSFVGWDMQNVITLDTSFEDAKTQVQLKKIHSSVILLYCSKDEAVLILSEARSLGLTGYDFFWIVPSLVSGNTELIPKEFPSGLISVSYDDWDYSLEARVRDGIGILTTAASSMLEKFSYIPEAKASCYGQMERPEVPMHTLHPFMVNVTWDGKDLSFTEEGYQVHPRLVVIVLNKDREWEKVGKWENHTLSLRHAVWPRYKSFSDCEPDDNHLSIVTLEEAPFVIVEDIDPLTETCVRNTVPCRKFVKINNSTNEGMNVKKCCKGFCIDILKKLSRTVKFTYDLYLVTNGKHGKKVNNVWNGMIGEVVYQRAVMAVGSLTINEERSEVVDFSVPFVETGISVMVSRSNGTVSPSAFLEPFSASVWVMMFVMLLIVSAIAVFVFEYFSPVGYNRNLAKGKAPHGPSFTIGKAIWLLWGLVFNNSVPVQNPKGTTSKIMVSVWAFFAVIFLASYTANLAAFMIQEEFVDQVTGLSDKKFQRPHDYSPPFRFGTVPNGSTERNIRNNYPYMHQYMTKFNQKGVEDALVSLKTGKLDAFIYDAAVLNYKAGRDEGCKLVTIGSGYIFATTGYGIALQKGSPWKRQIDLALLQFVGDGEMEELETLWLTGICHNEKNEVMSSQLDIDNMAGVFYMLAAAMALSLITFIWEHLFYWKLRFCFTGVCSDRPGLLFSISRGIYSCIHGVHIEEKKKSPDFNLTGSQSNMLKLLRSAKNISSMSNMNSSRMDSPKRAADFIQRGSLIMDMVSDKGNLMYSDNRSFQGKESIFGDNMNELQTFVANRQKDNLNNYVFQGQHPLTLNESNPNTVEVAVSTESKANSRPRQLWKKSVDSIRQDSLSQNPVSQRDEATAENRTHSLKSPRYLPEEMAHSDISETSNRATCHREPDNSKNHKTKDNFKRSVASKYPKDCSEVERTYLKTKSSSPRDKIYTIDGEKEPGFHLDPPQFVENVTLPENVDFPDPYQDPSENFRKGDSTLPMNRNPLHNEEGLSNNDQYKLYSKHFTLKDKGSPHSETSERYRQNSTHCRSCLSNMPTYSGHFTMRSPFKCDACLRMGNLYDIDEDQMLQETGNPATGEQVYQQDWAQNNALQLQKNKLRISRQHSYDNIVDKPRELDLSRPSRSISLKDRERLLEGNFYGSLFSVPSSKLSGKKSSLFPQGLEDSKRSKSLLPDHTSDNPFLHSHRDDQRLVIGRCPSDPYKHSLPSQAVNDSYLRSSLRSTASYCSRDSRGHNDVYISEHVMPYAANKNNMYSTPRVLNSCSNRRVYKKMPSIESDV

Molecular target: human NR1/NR2A (Homo sapiens (Human), UniProt Q12879)
Experiment: NR2A activity (Fluo-4 calcium influx assay)
Format: cell-based
Conditions: read-out: NR2A IC50; HEK293 cells stably expressing human NR1/NR2A; glutamate 100 μM, glycine 50 μM

Substance: N-(1-(2,2-difluoro-2-(pyridin-2-yl)ethyl)piperidin-4-yl)-7H-pyrrolo[2,3-d]-pyrimidin-4-amine
- IC50: > 10 µM
